Results taken from ChEMBL document CHEMBL1154707, “Morpholine derivatives greatly enhance the selectivity of mammalian target of rapamycin (mTOR) inhibitors” (J Med Chem, 2009).

Experiment: Selectivity for FLAG-tagged human mTOR over PI3Kalpha

Work on `CNC(=O)Nc1ccc(-c2nc(N3C[C@@H](C)O[C@@H](C)C3)c3cnn(C4CCN(Cc5cccnc5)CC4)c3n2)cc1` yielded a Ratio IC50 of 46.

`CCNC(=O)Nc1ccc(-c2nc(N3CCOCC3)c3cnn(C4CCN(C(=O)OC)CC4)c3n2)cc1` showed a Ratio IC50 of 1530.
